Earlier results, collected in US8425908B2, “Treatment with anti-ErbB2 antibodies” (Genentech, Inc., priority 1997, dated 2013).

Test system: BT-474 human breast adenocarcinoma cells
Details: BT-474 xenografts in nude mice; cited from earlier work

## HERCEPTIN®: recombinant humanized anti-ErbB2 monoclonal antibody, a humanized version of the murine anti-ErbB2 antibody 4D5
  enhancement of chemotherapy activity against xenografts: enhance the activity of paclitaxel (TAXOL®) and doxorubicin
